PubChem BioAssay AID995 (National Center for Advancing Translational Sciences (NCATS), 2007)
The entries are a selection whose mix differs from that of the whole data set. Records with an inconclusive call do not appear. Calls of active or inactive are those of the source. Calls follow the shape of the dose curve; as a rule, active = well fitted inhibition curve with a large enough effect; inconclusive = small, poorly fitted or top-dose-only effect; inactive = no such curve, though single readings can be large or run the other way.

Assay: qHTS Assay for Inhibitors of the ERK Signaling Pathway using a Homogeneous Screening Assay; also: nearly all actives have a fitted effect of over 55% in size
Conditions: HEK293-V1b, vasopressin-stimulated pERK AlphaScreen; at 57.5 µM unless noted
% is scaled to controls: 0 for no effect and ±100 for the full control effect.

SMILES | activity, negative = inhibition
O=C(OC1CN2CCC1CC2)C1c2ccccc2Oc2ccccc21 (stereo not given) | inactive: 10.2%
CCOP(=O)(Cl)Cl | inactive: 3.51%
NC1CCCCC1.NP(=O)(O)N(CCCl)CCCl | inactive: -2.27% [at 11.5 µM]
N#CC1(Nc2ccccc2)CCN(CCc2ccccc2)CC1 | inactive: 20%
ClCCOP(OCCCl)OCCCl | inactive: 5.85%
N/C(=N\O)c1c(N)no[n+]1[O-] | inactive: 6.61%
CCOc1ncccc1C(=O)NCC1(N2CCOCC2)CCCCC1 | inactive: -29.1%
O=C(O)C1(Nc2ccccc2)CCN(Cc2ccccc2)CC1 | inactive: 7.38% [at 11.5 µM]
CCC(CO)(C(=O)OC1CN2CCC1CC2)c1ccccc1 (stereo not given) | inactive: 9.39%
Fc1ccccc1NC1CCN(Cc2ccccc2)CC1 | inactive: -17.2%
